Values of other authors as cited in PMC3569036.

Molecular target: eNOS (Bos taurus) (UniProt P29473)

Q: Which Kd does the source give for Calmodulin (from UniProt P0DP23) here?
A: < 1 nM
